Measurements from patent US20260176343A1 (UCL BUSINESS, published 2026).

Tests used:
Assay in all cases: cell-based or functional assay
[1] = target: FVIII-mimetic bispecific tandem-scFv containing the human Factor V cleavage site WYLRSNNG
[2] = target: FVIII-mimetic bispecific tandem-scFv containing the thrombin-sensitive peptide LTPRGVRL
[3] = target: FVIII-mimetic bispecific tandem-scFv containing the thrombin-sensitive peptide LTPRLVRL

residual FVIII mimetic activity after 20 min of exposure to α-thrombin (% retained FVIII mimetic activity) [1]: 88.7 | residual FVIII mimetic activity after 20 min of exposure to α-thrombin (% residual activity) [2]: 17.5 | residual FVIII mimetic activity after 20 min of exposure to α-thrombin (% residual FVIII mimetic activity) [3]: 56.7
Substance: human α-thrombin (from UniProt P00734 328-622) (enzyme)
